From patent publication US5939095A, “Transdermal therapeutic system and a process for the combined transdermal application of physostigmine and scopolamine for the prophylaxis and pretreatment of a poisoning caused by highly toxic organophosphorus neurotoxins in particular soman” (dated 1999) come the findings set out here.

Data set [1] in a line: In-vitro-liberation of scopolamine and physostigmine into physiological saline (rotating cylinder). Particulars: from the TTS of the Example, physiological saline solution.
Data set [2] is described as follows: Clinical tolerance study of physostigmine skin patches with Scopoderm TTS. Conditions: voluntary test persons; double-blind against placebo.

On to `CN1[C@@H]2C[C@@H](OC(=O)[C@H](CO)c3ccccc3)C[C@H]1[C@@H]1O[C@@H]12`, for which, in data set [1], the “Accumulated release after 2 h” value turned out to be 0.1 mg/cm^2, the “Accumulated release after 4 h” value is given as 0.14 mg/cm^2, the “Accumulated release after 8 h” value worked out at 0.20 mg/cm^2 and the “Accumulated release after 24 h” value turned out to be 0.33 mg/cm^2. Besides, the “suppressing the undesired effects caused by physostigmine, in particular nausea and vomiting” value in data set [2] is listed as “effective”.
On to `CNC(=O)Oc1ccc2c(c1)[C@]1(C)CCN(C)[C@@H]1N2C`, for which, in data set [1], the “Accumulated release after 2 h” value is recorded as 0.5 mg/cm^2, the “Accumulated release after 4 h” value is 0.69 mg/cm^2, the “Accumulated release after 8 h” value came out at 1.02 mg/cm^2 and the “Accumulated release after 24 h” value is 1.71 mg/cm^2.
